The experiment addresses Stromelysin-1 (Homo sapiens, UniProt P08254). As to the kind of experiment: Inhibition of recombinant matrix metalloprotease-3 (MMP-3).

The chains behind the UniProt entries cited, without tags or fusion partners. Where a name states a change or a piece, a line headed by the entry shows the natural chain unless it says otherwise.
UniProt P08254: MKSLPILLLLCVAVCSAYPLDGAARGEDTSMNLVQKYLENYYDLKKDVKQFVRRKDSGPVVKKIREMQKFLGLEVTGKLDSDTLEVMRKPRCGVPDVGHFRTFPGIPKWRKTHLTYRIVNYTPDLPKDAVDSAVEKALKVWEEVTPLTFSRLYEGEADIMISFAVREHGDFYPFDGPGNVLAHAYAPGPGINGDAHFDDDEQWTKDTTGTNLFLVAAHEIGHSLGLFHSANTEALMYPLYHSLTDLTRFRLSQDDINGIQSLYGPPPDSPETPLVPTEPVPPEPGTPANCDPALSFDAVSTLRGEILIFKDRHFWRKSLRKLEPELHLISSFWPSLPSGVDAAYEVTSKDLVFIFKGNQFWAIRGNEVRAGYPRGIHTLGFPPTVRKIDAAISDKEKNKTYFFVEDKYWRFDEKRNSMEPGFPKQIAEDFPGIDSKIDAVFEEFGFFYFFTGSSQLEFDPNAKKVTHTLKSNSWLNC

Each structure is given as a SMILES string.

Broadly, the Ki is the equilibrium dissociation constant of an inhibitor or competing ligand from its target. As to `CC(C)C[C@@H](NC(=O)[C@H](CCc1ccccc1)CP(=O)(O)CCCCN1C(=O)c2ccccc2C1=O)C(=O)Nc1ccccc1`, the Ki stood at 1.4 nM.

The values above are taken from ChEMBL document CHEMBL1132009, “Inhibition of MMP-1 and MMP-13 with phosphinic acids that exploit binding in the S2 pocket” (Bioorg Med Chem Lett, 1999).
